Results: patent publication WO2005044853A2 (dated 2005)

By UniProt entry, the sequences of proteins in these tests, tags left out. Chains listed by the source or under a name are the forms on record and can include a tag or linker.
UniProt P15692, other isoform, or with tags, fused parts or gaps limits assumed: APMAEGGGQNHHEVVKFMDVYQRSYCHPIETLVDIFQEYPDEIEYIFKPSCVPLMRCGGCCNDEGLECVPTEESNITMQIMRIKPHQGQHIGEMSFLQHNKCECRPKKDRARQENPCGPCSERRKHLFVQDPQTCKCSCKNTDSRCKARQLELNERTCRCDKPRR
UniProt Q00731, other isoform, or with tags, fused parts or gaps limits assumed: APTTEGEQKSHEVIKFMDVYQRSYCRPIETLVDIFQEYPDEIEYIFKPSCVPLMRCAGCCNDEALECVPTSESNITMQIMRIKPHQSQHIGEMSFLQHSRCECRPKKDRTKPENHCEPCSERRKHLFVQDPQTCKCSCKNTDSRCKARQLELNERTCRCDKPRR

Columns and labels:
human VEGF [1] = biological target: T1, human VEGF (human, UniProt P15692-4 27-191, limits assumed); test: cell-based or functional assay
murine VEGF [2] = biological target: T2, murine VEGF (mouse, UniProt Q00731-2 27-190, limits assumed); test: competition-binding phage ELISA at 25C, Fab on phage
T2 construct: also called mVEGF; mouse VEGF

human VEGF [3] = biological target: T1, human VEGF; test: as above
murine VEGF [4] = biological target: T2, murine VEGF; test: cell-based or functional assay
murine VEGF [5] = biological target: T2, murine VEGF; test: SPR (Figure 8), Fab
human VEGF [6] = biological target: T1, human VEGF; test: SPR (Figure 8), Fab

B1: YADS2 Fab (Fab, V domains shown)
VH: EVQLVESGGGLVQPGGSLRLSCAASGFAISDYDIHWVRQAPGKGLEWVADIAPYAGATAYADSVKGRFTISADTSKNTAYLQMNSLRAEDTAVYYCSRSSYAYYAAMDYWGQGTLVTVSS
VL: DIQMTQSPSSLSASVGDRVTITCRASQSYAYAVAWYQQKPGKAPKLLIYDASYLYSGVPSRFSGSGSGTDFTLTISSLQPEDFATYYCQQAYSSPDTFGQGTKVEIKR
How did the “IC50 of inhibition of VEGF induced HUVEC proliferation” value (human VEGF [1]) turn out when B1 was run?
Its value is about 12 nM.

B2: G6 Fab (Fab, V domains shown)
VH: EVQLVESGGGLVQPGGSLRLSCAASGFTISDYWIHWVRQAPGKGLEWVAGITPAGGYTYYADSVKGRFTISADTSKNTAYLQMNSLRAEDTAVYYCARFVFFLPYAMDYWGQGTLVTVSS
VL: DIQMTQSPSSLSASVGDRVTITCRASQDVSTAVAWYQQKPGKAPKLLIYSASFLYSGVPSRFSGSGSGTDFTLTISSLQPEDFATYYCQQSYTTPPTFGQGTKVEIKR
notes: also called G6 antibody; G6 clone
Which IC50 (murine VEGF [2]) does the source give for B2 here?
Its IC50 is 0.5 nM and 1 nM.

What about the IC50 (human VEGF [3]) of the same binder?
Its IC50 is 0.5 nM and 1 nM.

B3: G6-23 Fab (Fab, V domains shown)
VH: EVQLVESGGGLVQPGGSLRLSCAASGFTISDYWIHWVRQAPGKGLEWVAGITPAGGYTYYADSVKGRFTISADTSKNTAYLQMNSLRAEDTAVYYCARFVFFLPYAMDYWGQGTLVTVSS
VL: DIQMTQSPSSLSASVGDRVTITCRASQDVSTAVAWYQQKPGKAPKLLIYSASFLYSGVPSRFSGSGSGTDFTLTISSLQPEDFATYYCKQGYANPWTFGQGTKVEIKR
notes: also called Fab-G6-23; FabG6-23
For B3, which “fold improvement over G6 in inhibiting HuVEC growth” value (murine VEGF [4]) is on record?
Its value is at least 100 fold.

And the “fold improvement over G6 in inhibiting HuVEC growth” value (human VEGF [1])?
Its value is at least 100 fold.

And the “fold improvement in Kd over G6” value (murine VEGF [5])?
Its value is at least 7 fold.

And the “fold improvement in Kd over G6” value (human VEGF [6])?
The value was at least 7 fold.

B4: G6-31 Fab (Fab, V domains shown)
VH: EVQLVESGGGLVQPGGSLRLSCAASGFTISDYWIHWVRQAPGKGLEWVAGITPAGGYTYYADSVKGRFTISADTSKNTAYLQMNSLRAEDTAVYYCARFVFFLPYAMDYWGQGTLVTVSS
VL: DIQMTQSPSSLSASVGDRVTITCRASQDVSTAVAWYQQKPGKAPKLLIYSASFLYSGVPSRFSGSGSGTDFTLTISSLQPEDFATYYCQQGYGNPFTFGQGTKVEIKR
Which results are given for B4?
fold improvement over G6 in inhibiting HuVEC growth (murine VEGF [4]): ≥ 100 fold; fold improvement over G6 in inhibiting HuVEC growth (human VEGF [1]): ≥ 100 fold

“And” between values parts separate entries of the source, which are not always exact repeats. Equal entries are not always repeated.
